# Assay results published in patent publication US20260055110A1 (Azura Ophthalmics Ltd., priority 2021, published 2026).
# Key:
# [1] = Aqueous Hydrolysis Stability Assay; settings: DPBS pH 7.4, 37° C.; t = 42
# Description: Example 2: Aqueous Hydrolysis Stability Assay
# Determination of aqueous stability of the test compounds was performed using UPLC-MS. A test compound 10 mM stock solution was prepared in DMSO. 10 μL of the DMSO stock solution was dissolved in 990 μL of DPBS pH 7.4 buffer to prepare a 100 μM stock. A further dilution was made by dissolving 75 μl of 100 μM stock into 225 μL of DPBS. Final DMSO concentration is 0.25%. The solution is kept at 37° C. and injected without delay into the LCMS (Waters Xevo TQ-). Additional injections were performed at appropriate time points.
# Half-life (T1/2) of the parent conjugate was calculated using the peak area or measured concentration of the parent conjugate at each time point in the linear region of the log—linear plot.
# Rabbit Cornea Esterase = test: Rabbit Cornea Homogenate Stability Assay (Rabbit Cornea Esterase Assay); settings: NZW, 37° C.
# Description: Example 1: Rabbit Cornea Homogenate Stability Assay
# Determining Rabbit Cornea Homogenate stability of the test compounds was performed using UPLC-MS. […]
# Three to four rabbit corneas (e.g., New Zealand Whites (NZW) or Dutch Belted (DB)) of approx. 50 mg each were sliced and scraped with a scalpel and tweezers until reduced to small (1-3 mm), thin pieces. These were transferred into a glass vial containing approximately 2 mL of cold DPBS pH 7.4 buffer.
# Sample was cooled intermittently on ice and shear homogenized for 3 minutes, then centrifuged for 3 min at 13,000 g. The supernatant was pipetted off into a vial, and total protein concentration determined at 280 nm. Sample was stored at −78° C. […]
# A heater shaker was set to 37° C. Into a suitable 96 well plate (Run Plate), 70 μL of 300 or 900 ng/μl esterase homogenate was pipetted into two rows as compounds were analyzed in duplicate (2 min, 5 min, 10 min, 20 min and 45 min). […]
# To both rows of the Run Plate, 70 μL of 10 μM compound solution was added. […] Samples were analyzed as soon as practicable by UPLC-MS (Waters Xevo TQ-S).
# A heater shaker was set to 37° C. Into a suitable 96 well plate (Run Plate), 80 μL of 300 or 900 ng/μL esterase homogenate was pipetted into two rows as compounds were analyzed in duplicate (2 min, 5 min, 10 min, 20 min and 45 min). […]
structure (smiles),measurement,setting,value
CC(=O)N[C@@H](CS)C(=O)O[C@]1(C(=O)O)CC[C@H]2[C@@H]3CCC4=CC(=O)C=C[C@]4(C)[C@H]3[C@@H](O)C[C@@]21C,Aqueous Stability (DPBS) T1/2 after t min,[1],0.562 h
same,Esterase (0.15 mg/mL) T1/2 (45 min),Rabbit Cornea Esterase; rabbit cornea homogenate 0.15 mg/mL,>2 h
same,Esterase (0.45 mg/mL) T1/2 (45 min),Rabbit Cornea Esterase; rabbit cornea homogenate 0.45 mg/mL,1.98 h
